Data reported in PubChem BioAssay AID1205 (EPA DSSTox, 2008).
Some tests of the compounds listed are not included; inactive here does not mean inactive elsewhere. Active and inactive are the calls of the source.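 How the source made its calls: active means tumour findings in long-term animal cancer tests in more than one sex, species or organ; inactive means no tumour finding and more than one negative test.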

Test: DSSTox (CPDBAS) Carcinogenic Potency Database Summary MultiCellCall Results
Conditions: animal carcinogenicity bioassays, multi-cell call summary
From the text: The Carcinogenic Potency Database (CPDB) is a unique and widely used international resource of the results of over 6500 chronic, long-term animal cancer tests on over 1500 chemical substances. The CPDB provides easy access to the bioassay literature, with qualitative and quantitative analyses of both positive and negative experiments that have been published over the past 50 years in the general literature and by the National Cancer Institute/National Toxicology Program. The CPDB standardizes the diverse literature of cancer bioassays that vary widely in protocol, histopathological examination and nomenclature, and in the published author's choices of what information to provide in their papers. Results are reported in the CPDB for tests in rats, mice, hamsters, dogs, and nonhuman primates, and are based on the most positive result among all experiments for each sex-species. The DSSTox CPDBAS (all species) file incorporates data from the CPDB Summary Tables for the full list of over 1500 chemical substances tested in at least one species. A summary MultiCellCall, based on experimental bioassay results of one or more species, is provided in the DSSTox CPDBAS file (see Source URL) for more than 1150 chemical substances. […]

Compound: N#CC(C#N)=Cc1ccccc1Cl
- outcome: inactive; multisex inactive; multispecies inactive
